Source: US8426353B2, “Process for preparing polyurea microcapsules” (Firmenich SA, priority 2008, dated 2013)

Assay: LogP of the perfume ingredients

LogP (ingredients of the perfume of Example 6 (Table 1)): 4.42
LogP (ingredients of the perfume of Example 9 (Table 9)): 4.42
Structure (SMILES): CC(=O)/C=C/C1=C(C)CCCC1(C)C [β-Ionone]
